GLP1R ag: GLP-1 receptor (human) agonism; actives 0.007% (n = 380,000); Potency, µM (series often up to 45.6 µM), most hits filed as activators; HEK293 GLP-1R CRE-luciferase, luminescence, 4-6 h; cells express a hypersensitive GLP-1R form; P43220
Pin1 inh: inhibitors of human Pin1. Pin1 FP peptide displacement, HiFluor488, 10 min. Potency, µM (series often up to 115 µM), usual class: inhibitors. actives 0.009% (n = 390,000); active = well fitted inhibition curve with a large enough effect in the polarisation, with a control signal flat, not every such curve was filed as active; inconclusive = small, poorly fitted or top-dose-only effect, or effect the other way, or a change in a side signal; inactive = no such curve, though single readings can be large or run the other way; the % refers to the polarisation
HEK293 tox: cytotoxicity in counter-screen for GLP-1R inverse agonists. actives 0.13% (n = 410,000). HEK293 cAMP-luciferase reporter cells, luminescence, 24 h. AID 624418. Potency, µM (highest dose often 38.3 µM), usual class: inhibitors;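 also: loss of luciferase light is scored as toxicity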
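1536-well qHTS counterscreen of the MLSMR; 200 cells/uL, 12 h pre-incubation, 23 nL cpd, 24 h at 37 deg C 5% CO2, luciferase detection reagent, 12 min RT, luminescence. Inhibition = undesired.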
miR-21 FLuc: miR-21 reporter, rising signal | HeLa miR-21 FLuc reporter, luciferase, 48 h | Potency, µM (top dose mostly 38.3 µM) | 340,000 tested, under 10 active | AID 2288; active = well fitted rising curve with a large enough effect; inconclusive = small, poorly fitted or top-dose-only effect; inactive = no such curve, though single readings can be large or run the other way;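 note: miR-21 action dims this reporter so a rising signal means less miR-21 action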
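Compounds were titrated across several concentrations (up to approximately 40 uM) and incubated 48 hours with HeLa miR-21-FLuc reporter cells (miR-21 target sequence downstream of FLuc, endogenous miR-21). Readout was firefly luciferase luminescence after lytic detection reagent.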
PTHR1 ag: activates the human parathyroid hormone receptor PTHR1 | actives 0.075% (n = 410,000) | Potency, µM (series often up to 115 µM), actives largely listed as activators | HEK293 GP2 PTHR1 cells, GloSensor cAMP luminescence, 1 h; also: nearly all actives have a fitted effect of over 55% in size
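HEK-293-derived GP2 cells expressing PTHR1 and a GloSensor cAMP reporter, 3,000/well, plated overnight, given luciferin plus IBMX (each 0.5 mM as added) for 1 h at 37 °C, then compound for 1 h at 37 °C. Luminescence was read after 15 min at room temperature.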
GLP1R inv ag: acts as inverse agonist at human GLP-1 receptor; P43220; HEK293 GLP-1R CRE-luciferase, luminescence, 24 h; GLP-1R form is constitutively active; Potency, µM (highest dose often 38.3 µM), hits mostly inhibitors; actives 1.6% (n = 410,000); AID 624417; also: nearly all actives have a fitted effect of over 55% in size
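Assay principle: reduced luminescence from a cAMP-responsive reporter in HEK293 cells co-expressing a constitutively active GLP-1R. Conditions: 24 hr compound incubation, 37 deg C, 5% CO2.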
Hits are given with their value; n = inactive; u = inconclusive; x = no result. The list is not random: actives were taken first. Their share in the collection is about 1.7%. Unless noted, calls follow the shape of the dose curve; as a rule, active = well fitted curve in the direction sought with a large enough effect; inconclusive = small, poorly fitted or top-dose-only effect, or another doubt; inactive = no such curve, though single readings can be large; an effect the other way counts as inactive or inconclusive.

SMILES | GLP1R ag | Pin1 inh | HEK293 tox | miR-21 FLuc | PTHR1 ag | GLP1R inv ag
COc1ccccc1CNC(=O)C1(NC(=O)Nc2ccc(C)cc2)CCCCC1 | n | n | n | n | n | 8.9µM
Cc1ccc(NC(=O)NC2(C(=O)NCc3ccccc3)CCCCC2)cc1 | n | n | n | n | n | n
COc1ccccc1C(=O)NCc1nc2cccnc2n1Cc1ccc(F)cc1 | x | n | n | n | n | n
COc1ccccc1C(=O)NNC(=O)c1cccc(O)c1 | n | n | n | n | n | u
COc1ccccc1C(=O)NNC(=O)c1cccc(F)c1 | n | n | n | n | n | 8.9µM
S=C(NCc1ccccc1)Nc1cccc(Cl)c1 | n | u | 10µM | n | n | u
S=C(NCCSCc1ccc(Cl)cc1Cl)Nc1ccccc1 | n | u | n | n | n | 3.5µM
S=C(NCc1ccccc1)NNc1ccccc1 | n | n | 8.9µM | n | n | 10µM
S=C(NCc1ccccc1)NCc1ccccc1 | n | n | n | n | n | n
Fc1cccc(NC(=S)NCc2ccccn2)c1 | n | n | 10µM | n | n | u
COc1ccc(CNc2nc(N)nc3nc[nH]c23)cc1 | x | n | x | x | x | x
O=S1(=O)N=C(Oc2ccccc2Br)c2ccccc21 | x | n | x | x | x | x
Cc1cc2c(s1)c1cnn(Cc3c(F)cccc3F)c(=O)c1n2C | x | n | x | x | x | x
CCOC(=O)c1ccc(NC(=O)c2nn(C)c3c2COc2ccccc2-3)cc1 | x | n | n | n | n | n
CCCC(=O)NC(c1ccccc1Cl)c1c(O)ccc2ccccc12 (stereo not given) | n | n | u | n | n | 7.1µM
Cc1ccc(C(NC(=O)C2CCCCC2)c2c(O)ccc3ccccc23)cc1 (stereo not given) | n | n | u | n | n | 4.5µM
CC(=O)Oc1ccc2ccccc2c1C(NC(=O)Cc1ccccc1)c1ccccc1Cl (stereo not given) | n | n | u | n | n | 5.6µM
CC(=O)NC(c1ccc(C(C)C)cc1)c1c(O)ccc2ccccc12 (stereo not given) | n | u | n | x | n | u
COC1=C(C(=O)O)N2C(=O)[C@@H](NC(=O)C(N)C3C=CCC=C3)[C@H]2SC1 (stereo not given in full) | n | x | x | x | x | x
CC(C)(C)OC(=O)N1CCC(c2c(C(=O)N3CCN(c4ccccn4)CC3)cnn2-c2cccc(F)c2)CC1 | x | n | n | n | n | n
CCN(CC)c1cc2c(cc1F)c(=O)c(S(=O)(=O)c1cccc(C)c1)cn2C | x | n | n | n | n | n
CC(C)c1nn2c(=O)cc(COC(=O)c3cccc(NC(=O)c4ccccc4F)c3)nc2s1 | x | n | n | n | n | n
OC[C@@H](O)[C@H](O)C(/C=N/Nc1ccccc1)=N\Nc1ccccc1 | n | n | u | n | n | 2.5µM
O=C(Nc1ccccc1)NC1CC2CCC(C1)N2Cc1nnnn1Cc1ccc2c(c1)OCO2 (stereo not given) | n | n | n | n | n | n
CCOc1ccccc1NC(=O)NC1CC2CCCC(C1)N2Cc1nnnn1CCc1ccccc1 (stereo not given) | n | n | n | n | n | 10µM
SMILES | GLP1R ag | Pin1 inh | HEK293 tox | miR-21 FLuc | PTHR1 ag | GLP1R inv ag
N#Cc1nc(-c2ccc(OCc3ccc(Cl)cc3)cc2)oc1N1CCCC1 | x | n | x | x | x | x
O=C(NCc1cccs1)Nc1cc(Cl)ccc1Cl | n | n | 10µM | n | n | u
Cc1ccc2c(c1)c1c(n2CC(O)CN2CCC(C)CC2)CCCC1 (stereo not given) | n | n | u | n | u | 5.6µM
O=C(CCNC(=O)Cn1ccc2ccccc2c1=O)NCCCN1CCN(c2ccc(F)cc2)CC1 | n | n | n | n | n | n
O=C(CNC(=O)Cn1ccc2ccccc2c1=O)NCCCN1CCN(c2cccc(Cl)c2)CC1 | n | n | n | n | n | 10µM
CN(CCOc1ccc(Cl)cc1)CC(=O)Nc1ccc(OC(F)F)cc1 | n | n | n | n | n | u
CCC(C)c1ccccc1NC(=O)CN(C)CCOc1ccc(Cl)cc1 (stereo not given) | n | n | n | n | n | 10µM
CN1CCN(c2ccc3sc(-n4ccc5ccccc54)nc3c2)CC1 | n | x | n | x | n | 6.3µM
O=C(N/N=C/c1ccccc1F)c1ccccc1OCc1ccccc1 | n | n | n | n | n | 7.9µM
O=C(NCc1ccccn1)c1cc(Cl)ccc1OCc1ccccc1 | n | n | n | n | n | 3.5µM
O=C(NCc1ccc(F)cc1)c1ccccc1OCc1ccccc1 | n | n | n | n | n | 10µM
C/C(=N\NC(=O)c1ccccc1OCc1ccc(F)cc1)c1ccccn1 | n | n | u | x | n | 5µM
O=C(NCc1ccccn1)c1ccc(Cl)cc1Cl | n | n | n | n | n | n
C/C(=N\NC(=O)c1cccc2ccccc12)c1ccccn1 | n | n | u | n | n | u
O=C(NNC(=O)c1ccccc1OCc1ccc(F)cc1)c1ccccc1O | n | n | n | n | n | u
COc1cccc(NS(=O)(=O)c2ccc3[nH]cc(C(=O)N(C)C4CCCCC4)c(=O)c3c2)c1 | x | n | n | n | n | n
CCN(CC(=O)Nc1ccccc1C(F)(F)F)C(=O)CCOc1ccccc1C | n | n | n | x | n | u
CCN(CC(=O)Nc1ccccc1C(F)(F)F)C(=O)c1ccccc1OCc1ccc(F)cc1 | n | n | n | x | n | 10µM
C=CCc1cc(C=O)cc(OC)c1OCc1ccc(Cl)cc1 | n | n | n | n | n | 10µM
COc1cc(-c2nnc(SCC3(c4ccc(Br)cc4)OCCO3)o2)cc(OC)c1OC | n | n | n | n | n | 4µM
Cc1cc(C)nc(NC(=S)NC(=O)c2ccccc2F)n1 | n | n | n | x | n | n
Cc1cc(C)nc(S/C=C/C(=O)c2ccccc2F)n1 | n | n | 3.5µM | n | n | u
CCN(c1ccccc1)S(=O)(=O)c1ccc(N2CCN(c3ccc(OC)cc3)CC2)nc1 | n | n | n | x | n | n
CCN(c1ccccc1)S(=O)(=O)c1ccc(N2CCN(c3ccc(O)cc3)CC2)nc1 | n | n | n | x | n | 4.5µM
CCn1ccc2cc(S(=O)(=O)N3CCC(C(=O)NCC(C)c4ccccc4)CC3)ccc21 (stereo not given) | x | n | n | n | n | n
CC(CNC(=O)Cn1ccc2cc(S(=O)(=O)N3CCCCCC3)ccc21)c1ccccc1 (stereo not given) | x | u | n | n | n | 11µM
Cc1ccc(CCNC(=O)CCCn2c(=O)c3ccccc3n(CC(=O)Nc3cc(Cl)ccc3C)c2=O)cc1 | n | n | n | n | n | n
CC(=O)NC(CCC(N)=O)C(=O)O (stereo not given) | n | x | x | x | x | x
CSc1nc(C)cc(C)c1S(=O)(=O)c1ccccc1C | n | n | n | n | n | 5µM

Source: PubChem BioAssay
